Literature values as cited in PMC7430049 (Journal of medicinal chemistry, 2019).

Molecular target: T1, G9a (Homo sapiens, UniProt Q96KQ7)
T1 sequence (Q96KQ7 913-1193 limits assumed): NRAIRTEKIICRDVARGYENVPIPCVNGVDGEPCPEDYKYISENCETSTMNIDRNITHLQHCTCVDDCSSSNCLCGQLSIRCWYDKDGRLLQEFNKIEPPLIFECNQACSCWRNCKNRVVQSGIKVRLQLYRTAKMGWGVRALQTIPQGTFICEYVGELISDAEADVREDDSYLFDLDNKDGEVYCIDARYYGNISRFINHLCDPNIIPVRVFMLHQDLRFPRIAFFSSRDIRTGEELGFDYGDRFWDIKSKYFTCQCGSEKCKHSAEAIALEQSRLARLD
Conditions: read-out: G9a IC50 (ECSD assay); ECSD assays; cited from earlier work

COc1cc2c(NC3CCN(C)CC3)nc(N3CCCN(C)CC3)nc2cc1OCCCN(C)C [compound 4]
IC50: 0.043 µM
